Results on 1 compound are retold here after publication PMC10070462, “Drug cytotoxicity screening using human intestinal organoids propagated with extensive cost-reduction strategies” (Scientific Reports, 2023).

The assay concerns hiPSO-derived IECs. Briefly: Cell viability of dispersed hiPSO-derived IECs (CellTiter-Glo 3D). The following applies: indicated doses, 48 h, Fig. 5A, B. In general terms: ATP-based viability assays read luminescence as a measure of living cells.

`N[C@@H](Cc1ccc([N+]([O-])(CCCl)CCCl)cc1)C(=O)O`: the “toxicity against IECs (cell viability)” value was “little toxicity”.
